From patent US20260375146A1, “COMBINATION OF COMPOUNDS FOR DEVELOPING IN VITRO MODELS OF THE BLOOD-BRAIN BARRIER” (HUN-REN SZEGEDI BIOLÓGIAI KUTATÓKÖZPONT, priority 2023, published 2026)

Test system: efflux pumps
Test: Efflux pump activity: bidirectional permeability of rhodamine 123 across co-culture model
Type: in vitro ADME, human
Protocol: After 1 h, samples from both compartments were collected and the mean fluorescence of rhodamine 123 was measured using a Fluorolog 3 spectrofluorometer (Horiba Jobin Yvon) with excitation/emission wavelengths 492/526 nm. Concentrations of rhodamine 123 were determined by standard calibration curves. Apparent permeability coefficients (P.) were calculated as described above.

rhodamine 123
efflux ratio of rhodamine 123 (model treated with cAMP+Ro+LiCl+A83-01 48 h, rhodamine 123 10 μM, 1 h): 2.1 | efflux ratio of rhodamine 123 with verapamil (model treated with cAMP+Ro+LiCl+A83-01, verapamil 2 μM, efflux pump inhibitor, 60 min, 10 µM): 0.98
